Protein sequences, listed by entry. Tags and fused reporters are not part of them. Residues count along the entry.
UniProt P22607, 23-806 limits assumed: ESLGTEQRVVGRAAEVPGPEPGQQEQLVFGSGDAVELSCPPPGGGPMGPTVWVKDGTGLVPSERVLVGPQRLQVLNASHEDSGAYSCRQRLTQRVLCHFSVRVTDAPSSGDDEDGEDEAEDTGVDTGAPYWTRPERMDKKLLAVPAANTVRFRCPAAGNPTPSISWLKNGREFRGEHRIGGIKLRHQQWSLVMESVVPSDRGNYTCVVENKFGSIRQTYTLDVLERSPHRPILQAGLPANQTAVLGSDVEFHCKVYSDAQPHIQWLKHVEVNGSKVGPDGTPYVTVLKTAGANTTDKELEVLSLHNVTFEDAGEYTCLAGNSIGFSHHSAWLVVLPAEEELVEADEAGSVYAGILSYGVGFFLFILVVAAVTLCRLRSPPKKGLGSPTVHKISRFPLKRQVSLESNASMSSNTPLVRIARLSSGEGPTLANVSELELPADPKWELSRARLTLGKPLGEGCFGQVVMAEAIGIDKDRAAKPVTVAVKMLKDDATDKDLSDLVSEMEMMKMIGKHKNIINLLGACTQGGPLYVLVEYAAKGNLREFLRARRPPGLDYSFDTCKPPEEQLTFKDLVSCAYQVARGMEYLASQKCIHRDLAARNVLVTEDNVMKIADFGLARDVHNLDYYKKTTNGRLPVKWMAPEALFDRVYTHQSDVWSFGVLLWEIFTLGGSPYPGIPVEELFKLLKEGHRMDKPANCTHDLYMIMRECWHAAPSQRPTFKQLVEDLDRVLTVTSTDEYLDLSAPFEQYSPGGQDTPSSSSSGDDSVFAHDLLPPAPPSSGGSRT
UniProt P42684, whole entry: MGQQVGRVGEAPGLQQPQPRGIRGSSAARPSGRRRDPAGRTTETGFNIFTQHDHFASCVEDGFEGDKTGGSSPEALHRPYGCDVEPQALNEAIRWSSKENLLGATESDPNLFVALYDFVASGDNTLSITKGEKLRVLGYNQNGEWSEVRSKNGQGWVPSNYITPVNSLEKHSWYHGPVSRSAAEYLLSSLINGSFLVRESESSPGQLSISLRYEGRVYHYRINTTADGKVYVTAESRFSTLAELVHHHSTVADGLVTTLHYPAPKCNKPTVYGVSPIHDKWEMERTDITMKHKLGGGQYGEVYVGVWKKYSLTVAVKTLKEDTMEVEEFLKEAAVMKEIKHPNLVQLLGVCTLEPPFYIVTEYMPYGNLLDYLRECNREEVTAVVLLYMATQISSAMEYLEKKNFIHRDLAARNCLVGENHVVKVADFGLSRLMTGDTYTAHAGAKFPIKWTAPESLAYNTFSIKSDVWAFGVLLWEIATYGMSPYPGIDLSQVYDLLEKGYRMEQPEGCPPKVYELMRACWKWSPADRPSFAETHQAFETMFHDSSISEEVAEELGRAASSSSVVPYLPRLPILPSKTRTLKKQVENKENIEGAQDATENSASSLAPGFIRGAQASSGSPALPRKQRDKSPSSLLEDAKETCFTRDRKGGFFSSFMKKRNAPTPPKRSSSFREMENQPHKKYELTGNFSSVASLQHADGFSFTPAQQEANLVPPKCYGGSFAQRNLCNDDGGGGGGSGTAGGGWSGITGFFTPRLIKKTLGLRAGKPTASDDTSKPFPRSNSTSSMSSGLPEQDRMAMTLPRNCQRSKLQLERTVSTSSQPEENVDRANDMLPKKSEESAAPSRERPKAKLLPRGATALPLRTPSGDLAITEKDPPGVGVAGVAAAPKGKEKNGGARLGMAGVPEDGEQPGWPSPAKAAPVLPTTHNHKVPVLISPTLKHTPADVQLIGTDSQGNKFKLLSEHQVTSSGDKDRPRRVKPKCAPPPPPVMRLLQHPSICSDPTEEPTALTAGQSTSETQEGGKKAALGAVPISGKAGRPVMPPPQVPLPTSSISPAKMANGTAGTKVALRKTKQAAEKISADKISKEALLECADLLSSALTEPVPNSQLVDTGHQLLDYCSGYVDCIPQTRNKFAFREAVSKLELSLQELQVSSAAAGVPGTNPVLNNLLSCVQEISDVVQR
UniProt P17948, 27-1338 limits assumed: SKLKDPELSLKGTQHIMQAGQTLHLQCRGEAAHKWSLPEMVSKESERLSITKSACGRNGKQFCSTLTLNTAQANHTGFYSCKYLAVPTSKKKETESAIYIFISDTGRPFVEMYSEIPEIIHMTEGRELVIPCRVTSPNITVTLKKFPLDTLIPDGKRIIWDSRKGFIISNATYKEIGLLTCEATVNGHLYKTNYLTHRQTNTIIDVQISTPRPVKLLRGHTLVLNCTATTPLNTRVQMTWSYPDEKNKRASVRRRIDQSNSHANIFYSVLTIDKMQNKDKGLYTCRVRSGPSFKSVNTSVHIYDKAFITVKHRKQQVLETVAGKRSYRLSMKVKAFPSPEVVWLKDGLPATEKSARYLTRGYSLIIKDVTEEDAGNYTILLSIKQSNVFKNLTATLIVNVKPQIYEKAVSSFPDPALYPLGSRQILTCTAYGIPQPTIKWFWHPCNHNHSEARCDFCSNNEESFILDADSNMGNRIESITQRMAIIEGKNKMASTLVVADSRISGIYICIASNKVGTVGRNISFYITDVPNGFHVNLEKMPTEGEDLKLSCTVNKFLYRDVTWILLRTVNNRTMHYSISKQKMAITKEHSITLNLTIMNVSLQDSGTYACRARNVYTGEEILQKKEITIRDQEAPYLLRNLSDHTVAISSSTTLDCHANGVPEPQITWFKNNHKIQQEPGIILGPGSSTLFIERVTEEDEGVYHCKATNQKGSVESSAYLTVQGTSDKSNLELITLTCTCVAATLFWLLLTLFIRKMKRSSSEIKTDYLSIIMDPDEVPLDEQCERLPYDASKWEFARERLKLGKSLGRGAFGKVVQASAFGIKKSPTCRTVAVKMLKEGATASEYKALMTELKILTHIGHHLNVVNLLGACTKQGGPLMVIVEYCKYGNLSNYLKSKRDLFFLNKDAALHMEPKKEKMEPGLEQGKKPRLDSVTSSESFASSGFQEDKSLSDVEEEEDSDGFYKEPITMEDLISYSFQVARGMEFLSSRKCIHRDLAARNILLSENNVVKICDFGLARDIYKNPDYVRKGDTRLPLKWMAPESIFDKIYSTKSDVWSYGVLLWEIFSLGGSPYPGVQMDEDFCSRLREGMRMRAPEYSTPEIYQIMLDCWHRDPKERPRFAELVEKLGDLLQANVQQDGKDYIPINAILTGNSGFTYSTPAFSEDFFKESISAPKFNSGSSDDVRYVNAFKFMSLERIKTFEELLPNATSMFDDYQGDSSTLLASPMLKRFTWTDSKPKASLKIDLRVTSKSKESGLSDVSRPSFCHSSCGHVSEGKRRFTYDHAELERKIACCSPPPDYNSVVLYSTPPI
UniProt P09619, 33-1106 limits assumed: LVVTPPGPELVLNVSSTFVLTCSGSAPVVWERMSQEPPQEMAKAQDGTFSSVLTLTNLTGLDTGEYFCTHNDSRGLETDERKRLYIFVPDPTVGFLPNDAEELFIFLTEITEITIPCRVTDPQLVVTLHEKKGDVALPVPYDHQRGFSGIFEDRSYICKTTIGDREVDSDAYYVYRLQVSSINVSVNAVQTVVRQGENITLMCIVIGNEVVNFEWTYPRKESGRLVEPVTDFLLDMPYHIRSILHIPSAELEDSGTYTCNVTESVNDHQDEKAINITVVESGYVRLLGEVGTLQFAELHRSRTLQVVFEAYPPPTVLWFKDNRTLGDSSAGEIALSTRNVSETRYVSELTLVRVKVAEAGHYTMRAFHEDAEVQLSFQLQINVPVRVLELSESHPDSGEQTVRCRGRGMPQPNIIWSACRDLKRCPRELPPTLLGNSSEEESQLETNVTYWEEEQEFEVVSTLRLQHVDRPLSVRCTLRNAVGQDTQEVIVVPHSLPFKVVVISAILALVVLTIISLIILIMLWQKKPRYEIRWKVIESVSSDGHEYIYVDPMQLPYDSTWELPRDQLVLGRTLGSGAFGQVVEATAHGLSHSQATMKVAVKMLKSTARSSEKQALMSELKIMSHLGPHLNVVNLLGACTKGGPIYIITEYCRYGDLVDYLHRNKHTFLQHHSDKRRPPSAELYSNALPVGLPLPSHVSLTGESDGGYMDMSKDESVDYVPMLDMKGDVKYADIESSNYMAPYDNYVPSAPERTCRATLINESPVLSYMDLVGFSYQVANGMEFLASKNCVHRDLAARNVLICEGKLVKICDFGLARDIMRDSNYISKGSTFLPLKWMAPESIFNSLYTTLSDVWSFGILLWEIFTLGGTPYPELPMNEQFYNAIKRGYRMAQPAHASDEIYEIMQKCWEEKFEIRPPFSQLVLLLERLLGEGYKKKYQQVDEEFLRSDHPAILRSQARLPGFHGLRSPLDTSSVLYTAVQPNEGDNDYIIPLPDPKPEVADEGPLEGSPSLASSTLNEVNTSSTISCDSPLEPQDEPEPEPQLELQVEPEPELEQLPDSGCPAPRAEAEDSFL
UniProt P36888, 27-993 limits assumed: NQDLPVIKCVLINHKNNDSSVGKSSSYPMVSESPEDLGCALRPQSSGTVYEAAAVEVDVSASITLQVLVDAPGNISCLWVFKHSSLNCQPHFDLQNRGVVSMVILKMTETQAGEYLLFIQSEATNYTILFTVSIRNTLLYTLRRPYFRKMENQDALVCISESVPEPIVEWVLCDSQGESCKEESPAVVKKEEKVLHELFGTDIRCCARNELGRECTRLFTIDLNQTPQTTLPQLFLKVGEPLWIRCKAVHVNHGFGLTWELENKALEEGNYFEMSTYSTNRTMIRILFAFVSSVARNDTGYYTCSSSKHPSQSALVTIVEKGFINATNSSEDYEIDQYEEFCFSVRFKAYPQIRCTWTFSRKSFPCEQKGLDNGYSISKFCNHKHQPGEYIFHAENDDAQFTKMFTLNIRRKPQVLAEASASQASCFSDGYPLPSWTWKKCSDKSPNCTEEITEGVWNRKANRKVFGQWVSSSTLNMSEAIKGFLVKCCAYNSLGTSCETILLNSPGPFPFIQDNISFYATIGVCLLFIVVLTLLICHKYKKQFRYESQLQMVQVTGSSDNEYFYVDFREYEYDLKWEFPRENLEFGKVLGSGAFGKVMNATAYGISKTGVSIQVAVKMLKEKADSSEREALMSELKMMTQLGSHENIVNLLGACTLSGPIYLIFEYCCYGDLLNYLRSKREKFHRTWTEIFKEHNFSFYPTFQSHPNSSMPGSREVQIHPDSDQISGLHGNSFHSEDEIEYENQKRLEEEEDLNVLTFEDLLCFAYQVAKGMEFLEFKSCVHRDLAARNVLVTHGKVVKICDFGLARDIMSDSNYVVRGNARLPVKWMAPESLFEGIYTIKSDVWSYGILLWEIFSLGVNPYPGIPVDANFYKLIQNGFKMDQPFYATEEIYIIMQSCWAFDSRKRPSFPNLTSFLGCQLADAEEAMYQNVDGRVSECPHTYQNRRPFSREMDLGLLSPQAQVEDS
UniProt P29320, 21-983 limits assumed: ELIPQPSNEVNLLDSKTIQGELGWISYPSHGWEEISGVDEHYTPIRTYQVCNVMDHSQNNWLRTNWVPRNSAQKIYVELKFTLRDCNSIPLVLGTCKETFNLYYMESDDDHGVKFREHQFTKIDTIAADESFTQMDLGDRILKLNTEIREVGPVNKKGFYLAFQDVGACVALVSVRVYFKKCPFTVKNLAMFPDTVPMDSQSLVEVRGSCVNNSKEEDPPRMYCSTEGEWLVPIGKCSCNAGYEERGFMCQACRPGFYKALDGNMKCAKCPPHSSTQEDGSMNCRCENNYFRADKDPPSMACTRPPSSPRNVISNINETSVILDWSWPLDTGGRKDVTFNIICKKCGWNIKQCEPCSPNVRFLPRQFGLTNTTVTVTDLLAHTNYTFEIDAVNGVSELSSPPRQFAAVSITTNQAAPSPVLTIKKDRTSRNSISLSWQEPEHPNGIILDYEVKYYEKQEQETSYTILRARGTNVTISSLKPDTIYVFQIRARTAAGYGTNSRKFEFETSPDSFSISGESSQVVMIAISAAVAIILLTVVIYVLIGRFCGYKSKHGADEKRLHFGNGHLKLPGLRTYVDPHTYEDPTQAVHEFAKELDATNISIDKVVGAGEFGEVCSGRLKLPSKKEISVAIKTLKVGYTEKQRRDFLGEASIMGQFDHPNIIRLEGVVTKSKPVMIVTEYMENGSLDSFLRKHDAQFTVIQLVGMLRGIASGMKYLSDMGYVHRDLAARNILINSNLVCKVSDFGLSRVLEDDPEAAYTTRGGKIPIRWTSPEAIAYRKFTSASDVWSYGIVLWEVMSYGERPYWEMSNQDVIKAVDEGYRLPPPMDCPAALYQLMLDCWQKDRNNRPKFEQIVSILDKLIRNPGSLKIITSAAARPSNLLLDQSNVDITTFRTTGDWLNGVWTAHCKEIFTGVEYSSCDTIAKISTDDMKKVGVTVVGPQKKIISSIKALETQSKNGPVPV

In patent US10196378B2, “Inhibitors of BCR-ABL mutants and use thereof” (THE REGENTS OF THE UNIVERSITY OF MICHIGAN, priority 2016, dated 2019):

Tests used:
[1] = biological target: VEGFR3 (FLT4) (Homo sapiens (Human), UniProt P35916); test: NanoSyn single-concentration kinase inhibition; type: biochemical
[2] = biological target: FGFR3 (Homo sapiens (Human), UniProt P22607); test: NanoSyn single-concentration kinase inhibition; type: biochemical
[3] = biological target: Abl2/Arg (Homo sapiens (Human), UniProt P42684); test: NanoSyn single-concentration kinase inhibition; type: biochemical
[4] = biological target: VEGFR1 (FLT1) (Homo sapiens (Human), UniProt P17948); test: NanoSyn single-concentration kinase inhibition; type: biochemical
[5] = biological target: PDGFRβ (Homo sapiens (Human), UniProt P09619); test: NanoSyn single-concentration kinase inhibition; type: biochemical
[6] = biological target: Csk (Homo sapiens (Human), UniProt P41240); test: NanoSyn single-concentration kinase inhibition; type: biochemical
[7] = biological target: PDGFRα (Homo sapiens (Human), UniProt P16234); test: NanoSyn single-concentration kinase inhibition; type: biochemical
[8] = biological target: FGFR1 (Homo sapiens (Human), UniProt P11362); test: NanoSyn single-concentration kinase inhibition; type: biochemical
[9] = biological target: FLT3 (Homo sapiens (Human), UniProt P36888); test: NanoSyn single-concentration kinase inhibition; type: biochemical
[10] = biological target: DDR1 (Homo sapiens (Human), UniProt Q08345); test: NanoSyn single-concentration kinase inhibition; type: biochemical
[11] = biological target: Tie2 (Homo sapiens (Human), UniProt Q02763); test: NanoSyn single-concentration kinase inhibition; type: biochemical
[12] = biological target: C-Raf (Homo sapiens (Human), UniProt P04049); test: NanoSyn single-concentration kinase inhibition; type: biochemical
[13] = biological target: Lck (Homo sapiens (Human), UniProt P06239); test: NanoSyn single-concentration kinase inhibition; type: biochemical
[14] = biological target: EPH-A3 (Homo sapiens (Human), UniProt P29320); test: NanoSyn single-concentration kinase inhibition; type: biochemical
[15] = biological target: Lyn-A (Homo sapiens (Human), UniProt P07948); test: NanoSyn single-concentration kinase inhibition; type: biochemical
[16] = biological target: MAP4K5 (Homo sapiens (Human), UniProt Q9Y4K4); test: NanoSyn single-concentration kinase inhibition; type: biochemical
[17] = Pharmacokinetics after IV bolus or oral administration in mice; type: in vivo

Question: Which “% inhibition at 100 nM, VEGFR3 (FLT4)” value [1] does the source give for `CC(C)(C)c1cc(NC(=O)Nc2ccc(Oc3ccc4ncncc4c3)cc2)n(-c2ccc3ncccc3c2)n1` here?
Answer: Its value is 53%.

Question: What about the “% inhibition at 100 nM, FGFR3” value [2] of the same molecule?
Answer: The value was 95%.

Question: What about the “% inhibition at 100 nM, Abl2/Arg” value [3] of the same molecule?
Answer: The value was 93%.

Question: And the “% inhibition at 100 nM, VEGFR1 (FLT1)” value [4]?
Answer: The value was 49%.

Question: And the “% inhibition at 100 nM, PDGFRβ” value [5]?
Answer: The value was 60%.

Question: And the “% inhibition at 100 nM, Csk” value [6]?
Answer: The value was 76%.

Question: What about the “% inhibition at 100 nM, PDGFRα” value [7] of the same molecule?
Answer: Its value is 92%.

Question: And the “% inhibition at 100 nM, FGFR1” value [8]?
Answer: The value was 71%.

Question: And the “% inhibition at 100 nM, FLT3” value [9]?
Answer: Its value is 92%.

Question: What about the “% inhibition at 100 nM, DDR1” value [10] of the same molecule?
Answer: Its value is 103%.

Question: And the “% inhibition at 100 nM, Tie2” value [11]?
Answer: Its value is 96%.

Question: What about the “% inhibition at 100 nM, C-Raf” value [12] of the same molecule?
Answer: The value was 98%.

Question: And the “% inhibition at 100 nM, Lck” value [13]?
Answer: Its value is 91%.

Question: What about the “% inhibition at 100 nM, EPH-A3” value [14] of the same molecule?
Answer: The value was 47%.

Question: What about the “% inhibition at 100 nM, Lyn-A” value [15] of the same molecule?
Answer: The value was 92%.

Question: What about the “% inhibition at 100 nM, MAP4K5” value [16] of the same molecule?
Answer: The value was 8%.

Question: What about the AUC0-24 h ([17]; IV bolus, 15 mg/kg) of the same molecule?
Answer: The AUC0-24 h was 40.0784 µg·h/mL.

Question: What about the Clobs ([17]; IV bolus, 15 mg/kg) of the same molecule?
Answer: Its Clobs is 0.3742 L/h/kg.

Question: And the T1/2 ([17]; IV bolus, 15 mg/kg)?
Answer: Its T1/2 is 2.4 h.

Question: And the Vz obs ([17]; IV bolus, 15 mg/kg)?
Answer: Its Vz obs is 1.3129 L/kg.

Question: What about the AUC0-24 h ([17]; PO, 30 mg/kg) of the same molecule?
Answer: Its AUC0-24 h is 20.70925 µg·h/mL.

Question: What about the Bioavailability ([17]; PO, 30 mg/kg) of the same molecule?
Answer: The Bioavailability was 26% and 25.6%.

Question: And the Clobs ([17]; PO, 30 mg/kg)?
Answer: Its Clobs is 1.4306 L/h/kg.

Question: And the Cmax ([17]; PO, 30 mg/kg)?
Answer: The Cmax was 11.85 µg/mL.

Question: And the T1/2 ([17]; PO, 30 mg/kg)?
Answer: Its T1/2 is 4 h.

Question: And the Tmax ([17]; PO, 30 mg/kg)?
Answer: Its Tmax is 0.5 h.

Question: And the Vz obs ([17]; PO, 30 mg/kg)?
Answer: The Vz obs was 8.2925 L/kg.

Question: What about the onset of action ([17]; oral administration) of the same molecule?
Answer: The onset of action was 30 min.

Where “and” joins values, the source holds several entries; their conditions need not be identical. Identical values can stand only once.
